Assay results taken from publication PMC7612365 (Cancer Discovery, 2021).

Test system: ACVR1^R206H HSJD-DIPG-007 cells
Test: Western blot of signalling in HSJD-DIPG-007 cells
Type: cell-based, human

Compound | inhibition of phosphorylated SMAD1/5/8 | ID1 expression (single agent)
CO[C@H]1C[C@@H]2CC[C@@H](C)[C@@](O)(O2)C(=O)C(=O)N2CCCC[C@H]2C(=O)O[C@H]([C@H](C)C[C@@H]2CC[C@@H](OCCO)[C@H](OC)C2)CC(=O)[C@H](C)/C=C(\C)[C@@H](O)[C@@H](OC)C(=O)[C@H](C)C[C@H](C)/C=C/C=C/C=C/1C [everolimus] | not observed | reduction
COc1cc2c(Nc3ccc(Br)cc3F)ncnc2cc1OCC1CCN(C)CC1 [vandetanib] | concentration-dependent inhibition | 
